Measured values from PubChem BioAssay AID1259400 (National Center for Advancing Translational Sciences (NCATS), 2018).
The list shows a part of the results, in another mix than the full data. Calls of active or inactive are those of the source.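 The calls were made as follows: active = activity change of -60% or lower, but not beyond a set lower limit; inconclusive = change between -60% and -40%, or beyond the set limit; inactive = change above -40%.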

The chains behind the UniProt entries cited, without tags or fusion partners. Where a name states a change or a piece, a line headed by the entry shows the natural chain unless it says otherwise.
UniProt Q9HBX9: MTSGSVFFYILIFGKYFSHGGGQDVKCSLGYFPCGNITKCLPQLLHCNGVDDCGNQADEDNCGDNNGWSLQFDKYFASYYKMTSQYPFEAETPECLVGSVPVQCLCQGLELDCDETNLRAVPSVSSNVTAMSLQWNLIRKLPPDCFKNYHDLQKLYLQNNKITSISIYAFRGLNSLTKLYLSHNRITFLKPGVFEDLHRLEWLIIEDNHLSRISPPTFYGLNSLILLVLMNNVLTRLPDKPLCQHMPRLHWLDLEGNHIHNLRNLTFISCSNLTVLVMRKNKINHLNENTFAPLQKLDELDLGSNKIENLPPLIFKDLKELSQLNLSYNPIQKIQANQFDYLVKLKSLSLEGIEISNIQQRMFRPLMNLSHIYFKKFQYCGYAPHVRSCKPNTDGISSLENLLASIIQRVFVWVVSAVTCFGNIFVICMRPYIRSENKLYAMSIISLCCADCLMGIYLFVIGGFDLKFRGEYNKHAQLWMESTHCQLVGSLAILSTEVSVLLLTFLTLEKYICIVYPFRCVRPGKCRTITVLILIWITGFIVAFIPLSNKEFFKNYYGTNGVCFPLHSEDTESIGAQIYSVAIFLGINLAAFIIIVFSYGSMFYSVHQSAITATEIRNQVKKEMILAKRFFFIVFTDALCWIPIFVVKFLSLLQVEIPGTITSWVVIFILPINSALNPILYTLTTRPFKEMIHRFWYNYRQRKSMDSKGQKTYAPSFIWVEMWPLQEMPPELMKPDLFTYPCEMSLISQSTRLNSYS

Target: Relaxin receptor 1 (Homo sapiens) (UniProt Q9HBX9)
Test: qHTS Assay for Antagonists of the Relaxin Receptor RXFP1
Conditions: HEK293-RXFP1, relaxin-stimulated cAMP HTRF, 30 min; at 57.5 µM; active compounds read low
Text: The relaxin hormone is involved in the variety of biological functions in normal tissues and diseases. The role of relaxin is well-established in female reproduction and parturition, mammary gland and endometrial development, maintenance of myometrial quiescence during pregnancy. Relaxin signaling through its G protein-coupled receptor (GPCR) RXFP1 results in ECM remodeling through regulation of collagen deposition, cell invasiveness, proliferation and overall tissue homeostasis. […] Recombinant human relaxin (rhRlx) is currently being tested in clinical trials as a protective agent in congestive heart failure, in treating severe preeclampsia, and as an anti-fibrotic agent in various organs. […] Upon relaxin binding RXFP1 activation leads to the activation of adenylate cyclase (AC) via G?s. cAMP will activate PKA, which phosphorylates many signaling proteins. Thus, detection of cAMP increase is an easy and reliable indication of relaxin receptor activation. To screen for antagonists of the relaxin receptor, a HEK293T cell line stably transfected with RXFP1 was used. RXFP1 activation by relaxin in presence of various concentrations of tested compounds was assayed by changes in cAMP levels as detected with a time-resolved fluorescence energy transfer (TR-FRET) cAMP detection kit.
For the primary screening, we used HTRF(R) (Homogenous Time-Resolved Fluorescence) cAMP HiRange assay (Cisbio Bioassays, 62AM6PEJ). Presence of cAMP in the cell lysate disrupts binding between the Cryptate-labeled anti-cAMP and d2-labeled cAMP pair, leading to a decrease in TR-FRET signal. The libraries were screened at two doses (57microM and 11microM), followed by a confirmation of the hits at 7-point serial dilution in the range of final concentrations [57microM - 78nM]. Data were normalized to the controls for basal activity (buffer only) and 100% activity (5 nM porcine relaxin). The EC50 values were determined from concentration-response data modeled with the standard Hill equation. NCGC Assay Protocol Summary: HiHEK (Hawaiian HEK293 LGR7 stably transfected with human RXFP1) were grown in the following media: DMEM+10%FBS+Pen/Strep + Geneticin (1mg/ml). For the assay, the cells were seeded in DMEM+Pen/Strep (with no serum & selective antibiotics) at 2,100 cells/ 3microl/well with MultiDrop Combi dispenser (Thermo Scientific, Logan, UT) onto white tissue culture treated solid bottom1536-well plates (Greiner #789173-F) and allowed to attach/recover overnight at 37 degrees C, 5% CO2. Next, 23nl/well of compound solutions in DMSO were transferred into wells with a pintool (Kalypsis, San Diego, CA). […] EC80 (relaxin at 50pM final concentration) was dispensed to the rest of the plate except columns 1&2 which were used as a negative control (EC0, buffer only), 1microl/well also. The cells were stimulated by relaxin in the presence of compounds for 30 minutes at 37 degrees C, 5% CO2. The detection reagents were prepared individually by dilution in Lysis buffer (supplied with the assay kit) just prior to dispensing. 1microl/well of cAMP-d2 and 1microl/well anti-cAMP-Eu3+-Cryptate antibodies were added simultaneously with BioRAPTR FRDtrade mark Workstation (Beckman Coulter). The plates were incubated at ambient temperature for 30 minutes and, then, FRET signal was read on Envision plate reader (PerkinElmer, Waltham, MA), at wavelengths 340nm (excitation), 615nm & 665nm (emission of donor and acceptor channels respectively).
% is scaled to controls: 0 for no effect and ±100 for the full control effect.

| SMILES | activity change, negative = inhibition |
| --- | --- |
| CCCOP(=S)(Nc1nc(N)cc(=O)[nH]1)OCCC | inactive: -7.01% |
| Nc1cccc2c([As](=O)(O)O)cccc12 | inactive: 7.23% |
| Cc1ccc(NCCc2c([N+](=O)[O-])cc([N+](=O)[O-])cc2[N+](=O)[O-])cc1 | inactive: -18.1% |
| CCOP(=O)(Nc1cccc2ccccc12)OCC | inactive: 9.57% |
| COc1cc(C2NCCC3(OCCO3)C2(C)C)cc(OC)c1OC (stereo not drawn) | inactive: -1.89% |
| CS(=O)(=O)c1ccc(Cl)c(NC(=O)COC(=O)C(O)(c2ccccc2)c2ccccc2)c1 | inactive: -8.44% |
| COc1cc(C(=O)NCC2(N3CCOCC3)CCCCC2)cc(Cl)c1OC(C)C | inactive: -3.36% |
| O=[As](O)(O)c1cccnc1 | inactive: 19.1% |
| O=C(OC1CN2CCC1CC2)c1ccc(Cl)cc1 (stereo not drawn) | inactive: 13.2% |
| O=[As](O)(c1cccc(O)c1)c1cccc(O)c1 | inactive: -4.25% |
| Cc1cccc(OCC(=O)OC2CN3CCC2CC3)c1 (stereo not drawn) | inactive: -1.86% |
| NC(=O)Nc1ccc([As](=O)(O)O)cc1 | inactive: 2.34% |
| CN(C(=O)Cc1ccc(Cl)c(Cl)c1)[C@H]1CC[C@@]2(CCCO2)C[C@@H]1N1CCCC1 | inactive: -4.96% |
| CN(C)C(=O)c1cc([N+](=O)[O-])cc2c1-c1c(cc([N+](=O)[O-])cc1[N+](=O)[O-])C2=O | active: -84% |
| O=[N+]([O-])c1ccc2c(c1)nnn2O | inactive: 2.38% |
| CCOP1(=S)c2c(C)nn(CCC#N)c2N=C(c2ccc(F)cc2)N1C (stereo not drawn) | inactive: 23.1% |
| N#CCCN(C(=O)COC(=O)C(O)(c1ccccc1)c1ccccc1)c1ccc(F)cc1 | inactive: -8.24% |
| CS(=O)(=O)c1cc([N+](=O)[O-])c2no[n+]([O-])c2c1 | inactive: -14.4% |
| O=P(Nc1nccs1)(c1ccccc1)c1nc2ccccc2s1 (stereo not drawn) | inactive: 4.7% |
| O=P(Nc1nccs1)(Oc1ccccc1)Oc1ccccc1 | inactive: 0.209% |
| CCOP1(=S)c2c(C)nn(CCC#N)c2N=C(c2ccccc2F)N1C (stereo not drawn) | inactive: -3.81% |
| Nc1ccccc1[As](=O)(O)c1ccccc1 | inactive: -17.1% |
| O=C(O)COc1ccc([As](=O)(O)O)cc1[N+](=O)[O-] | inactive: 9.49% |
| O=P1(Nc2ncccn2)COc2ccccc2OC1 | inactive: -1.76% |
| O=P1(Nc2ccc(Br)cn2)COc2ccccc2OC1 | inactive: 1.67% |
| NS(=O)(=O)c1cccc(NC(=O)COC(=O)C(O)(c2ccccc2)c2ccccc2)c1 | inactive: -5.22% |

| SMILES | activity change, negative = inhibition |
| --- | --- |
| O=[As](O)(c1cccs1)c1cccs1 | inactive: -6.37% |
| Cc1ccc(OCC(=O)OC2CN3CCC2CC3)cc1 (stereo not drawn) | inactive: -3.88% |
| Nc1cccc([As](=O)(O)c2ccccc2)c1 | inactive: -6.25% |
| Cc1ccc(C(=O)OC2CN3CCC2CC3)cc1 (stereo not drawn) | inactive: -5.89% |
| Cc1nn(-c2ccccc2)c2c1P(=O)(N1CCOCC1)N(C)C(c1ccccc1)=N2 (stereo not drawn) | inactive: 24.3% |
| CCCC1OP(=O)(Nc2ccccc2)OCC1CC (stereo not drawn) | inactive: 3.6% |
| O=C(/C=C/c1ccccc1)OC1CN2CCC1CC2 (stereo not drawn) | inactive: 5.72% |
| CN(C)C1(CNC(=O)c2ccc(S(C)(=O)=O)cc2)CCCCC1 | inactive: -5.14% |
| COc1ccccc1CNC(=O)COC(=O)C(O)(c1ccccc1)c1ccccc1 | inactive: -5.27% |
| CC1(CBr)Cn2c(nc3ccccc3c2=O)S1 (stereo not drawn) | inactive: -9.19% |
| CC(C)/C=N\N=C(\N)N[N+](=O)[O-] | inactive: -8.63% |
| CCOP(=O)(Nc1ccc(C)cn1)OCC | inactive: 5.69% |
| CCOP(=O)(NC(=NC(C)c1ccccc1)NC(C)c1ccccc1)OCC (stereo not drawn) | inactive: 5% |
| O=P1(Nc2ccccn2)COc2ccccc2OC1 | inactive: 1.75% |
| CC(C)(C)C(=O)NC(Sc1ncccn1)C(Cl)(Cl)Cl (stereo not drawn) | inactive: 1.96% |
| O=P1(N(CCCl)CCCl)NCCC(C(F)(F)F)O1 (stereo not drawn) | inactive: 12.7% |
| Clc1n[nH]nc1-c1nn[nH][15n]1 | inactive: -8.8% |
| CCOC(=O)c1ccc(NC(=O)C(C)(CCl)SC)cc1 (stereo not drawn) | inactive: -7.62% |
| CSc1ccc(Nc2c([N+](=O)[O-])cc([N+](=O)[O-])cc2[N+](=O)[O-])cc1 | inactive: 2.52% |
| O=C(OC1CN2CCC1CC2)c1cccc([N+](=O)[O-])c1 (stereo not drawn) | inactive: 1.53% |
| CCC(C)N(CC(C)C)C(=S)SC(NC(C)=O)C(Cl)(Cl)Cl (stereo not drawn) | inactive: 8.17% |
| COP1(=S)c2c(C)nn(CCC#N)c2N=C(c2ccc(F)cc2)N1C (stereo not drawn) | inactive: 3.12% |
| O=C(Nc1ccncc1[N+](=O)[O-])c1ccc([N+](=O)[O-])cc1[N+](=O)[O-] | inactive: 11% |
| O=C(COc1ccccc1)OC1CN2CCC1CC2 (stereo not drawn) | inactive: -12.3% |
| O=C(O)C(=O)c1ccc(N(CCCl)CCCl)cc1 | inactive: -9.07% |
| CCOC(=O)Nc1cccc([As](=O)(O)O)c1 | inactive: 4.78% |

| SMILES | activity change, negative = inhibition |
| --- | --- |
| O=[N+]([O-])c1ccc(Nc2ccc(Oc3ccc([N+](=O)[O-])cc3[N+](=O)[O-])cc2)c([N+](=O)[O-])c1 | inactive: 8.64% |
| O=P(Nc1ccccn1)(c1cccc2ccccc12)c1cccc2ccccc12 | inactive: -0.335% |
| Cc1cc(SC(NC=O)C(Cl)(Cl)Cl)ncn1 (stereo not drawn) | inactive: -4.05% |
| CC1CCNP(=O)(N(CCCl)CCCl)O1 (stereo not drawn) | inactive: 1.24% |
| CCOC(=O)Nc1ccc([As](=O)(O)O)c(O)c1 | inactive: -8.23% |
| O=C(O)C(O)c1ccc(N(CCCl)CCCl)cc1 (stereo not drawn) | inactive: 14.8% |
| Cc1cc(SC(NC(=O)c2ccccc2)C(Cl)(Cl)Cl)nc(C(C)C)n1 (stereo not drawn) | active: -109% |
| CCCCOc1ccc(C(=O)NCC2(N3CCCCC3)CCCCC2)cc1OC | inactive: -8% |
| COP(=O)(OC)N1CC1c1ccccc1 (stereo not drawn) | inactive: 4.46% |
| CC(C)c1ccc(OP(=O)(Nc2ccccn2)Oc2ccccc2F)cc1 (stereo not drawn) | inactive: 5.58% |
| COC(=O)C1(C)COP(=O)(N2CCCCCC2)OC1 (stereo not drawn) | inactive: -9.99% |
| ClCCSc1nnc(-c2cccnc2)o1 | inactive: 0.105% |
| O=[N+]([O-])c1cc([N+](=O)[O-])c(-c2ccn[nH]2)s1 | inactive: 3.39% |
| O=C(OC1CN2CCC1CC2)c1cccc2[nH]cnc12 (stereo not drawn) | inactive: -8.4% |
| CCN(CC)C(=S)SC(NC=O)C(Cl)(Cl)Cl (stereo not drawn) | inactive: 6.34% |
| CC(C)NC(=O)NP(=O)(Oc1ccccc1)Oc1ccccc1 | inactive: -24.9% |
| COc1cc(C(=O)NCC2(N3CCOCC3)CCCCC2)ccc1OCC(C)C | inactive: -6.8% |
| O=[N+]([O-])c1ccc(-c2cc([N+](=O)[O-])c(O)c([N+](=O)[O-])c2)cc1 | inactive: -6.55% |
| C[As](=O)(O)c1cccc(C(=O)O)c1 | inactive: 2.22% |
| O=[As](O)(c1ccc(O)cc1)c1ccccc1O | inactive: -10.2% |
| Cc1ccc(OP(=O)(Nc2ccc([N+](=O)[O-])cn2)Oc2ccc(C)cc2)cc1 | inactive: 6.5% |
| COc1ccc(N/C(=N/P(=O)(N2CCOCC2)N2CCOCC2)N2CCOCC2)cc1 | inactive: -14.4% |
| O=[N+]([O-])c1cc(Oc2ccc([N+](=O)[O-])cc2C(F)(F)F)cc([N+](=O)[O-])c1 | inactive: -2.67% |
| Cc1cc(=O)[nH]c(N[N+](=O)[O-])n1 | inactive: -3.89% |
| O=C(OC1CN2CCC1CC2)C12CC3CC(CC(C3)C1)C2 (stereo not drawn) | inactive: 0.804% |
| Cc1c2c(nc3ccccc13)SC(C(Cl)Cl)C2 (stereo not drawn) | inactive: -13.5% |

| SMILES | activity change, negative = inhibition |
| --- | --- |
| COc1cc(I)ccc1[As](=O)(O)O | inactive: -7.93% |
| COc1ccc2nc(NP(=O)(c3ccccc3)c3ccccc3)sc2c1 | inactive: -12.7% |
| O=P1(N(CCCl)CCCl)Nc2ccccc2N1 | inactive: 2.44% |
| O=P1(N(CCCl)CCCl)OCCCN1CCCl (stereo not drawn) | inactive: -1.36% |
| CC(C)CC(=O)NC(Sc1ccc(Cl)cc1)C(Cl)(Cl)Cl (stereo not drawn) | inactive: -29.5% |
| Nc1cc(N)c2nonc2c1[N+](=O)[O-] | inactive: 2.36% |
| O=C(NC(Sc1ccncn1)C(Cl)(Cl)Cl)c1ccccc1 (stereo not drawn) | inactive: -0.562% |
| Oc1ccccc1CNc1ccccn1 | inactive: 5.88% |
| NC(=O)c1cc([N+](=O)[O-])cc([N+](=O)[O-])c1N | inactive: 5.14% |
| Cc1ccc(N/C(=N/P(=O)(N2CCOCC2)N2CCOCC2)N2CCOCC2)cc1 | inactive: -6.64% |
| Cc1ccc(OP(=O)(Nc2nccs2)Oc2ccc(C)cc2)cc1 | inactive: -12.2% |
| COc1ccccc1OP(=O)(Nc1ccc(C)cn1)Oc1ccccc1OC | inactive: -1.78% |
| Clc1ccc(Cl)c(NC2=NCC(CBr)S2)c1 (stereo not drawn) | inactive: -8.03% |
| CN1CCCC(OC(=O)C(c2ccccc2)c2ccccc2)C1 (stereo not drawn) | inactive: 4.03% |
| CCN(N=Nc1nonc1N)c1nonc1N | inactive: 2.48% |
| Nc1cccc2ccc([As](=O)(O)O)cc12 | inactive: -0.509% |
| CCCC1OP(N)(=O)OCC1CC (stereo not drawn) | inactive: 4.2% |
| O=C(O)c1ccccc1[As](=O)(O)O | inactive: 10.6% |
| CC(=O)Nc1ccc([As](=O)(O)O)cc1 | inactive: -3.06% |
| CN(C)P(=O)(N(C)C)n1c(Nc2ccccc2)nnc1-c1ccccc1 | inactive: -13.1% |
| Cc1ccc(NP(=O)(Oc2ccccc2F)Oc2ccccc2F)nc1 | inactive: -10.2% |
| CCOP(=O)(Nc1ccccc1)OCC | inactive: -9.13% |
| Cc1cc(SC(NC(=O)c2ccc(F)cc2)C(Cl)(Cl)Cl)ncn1 (stereo not drawn) | inactive: 4.47% |
| CC(C)(C)C(=O)NC(Sc1ccncn1)C(Cl)(Cl)Cl (stereo not drawn) | inactive: 0.305% |
| O=[N+]([O-])c1ncn(CCn2ncnc2[N+](=O)[O-])n1 | inactive: 3.72% |
